Results from patent US5858684A, “Method of screening calcium receptor-active molecules” (priority 1995, dated 1999).

Tested on: cyclic AMP formation in bovine parathyroid cells
Assay type: cell-based

NCCCNCCCCNCCCN [Spermine, spermine]
isoproterenol-induced cyclic AMP: depressed isoproterenol-induced increases
